From US20060058268A1, “Compounds and methods for treating diabetic vascular diseases” (priority 2004, published 2006)

System: cells
Type: cell-based
Set-up: unit not given beside the values
Procedure: The plates are incubated at 37° C., 5% CO2 overnight (approximately 16 hours). The next day the plates are checked under the microscope to see if there are any visual signs of toxicity. Records are made of any cell death, debris, or morphology changes, as well as insoluble compounds (particulate or turbity).

How did the LD50 turn out when “2,6-di-tert-butyl-4-thio(3′,5′-ditert-butyl,4′-hydroxy butanedioic acid ester)phenol” was run?
Its LD50 is 50.
